# Apparent affinities of Ab-91 variants for a coronavirus HR2 peptide

The target is the same throughout: PDVDLGDISGINAS, from the HR2 region of SARS-CoV-2 spike.

Parent: Ab-91, a human scFv built as VL, a 15-residue (Gly4Ser)3 linker, VH. Only the CDRs of the heavy chain vary.
VL: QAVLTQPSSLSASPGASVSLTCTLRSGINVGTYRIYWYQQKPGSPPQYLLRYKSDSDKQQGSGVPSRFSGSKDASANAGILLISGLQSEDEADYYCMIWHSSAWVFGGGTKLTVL
VH: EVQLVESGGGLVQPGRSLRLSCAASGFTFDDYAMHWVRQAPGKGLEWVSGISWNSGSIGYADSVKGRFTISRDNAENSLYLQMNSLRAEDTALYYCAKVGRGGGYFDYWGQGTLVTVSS

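AAYL51 was designed without a model: most single CDR substitutions and a random sample of double and triple ones. The assay is AlphaSeq: two haploid yeast populations carry antibody and antigen on their surface. Binding brings cells together so that they mate, and sequencing counts the barcode pairs among the diploids. Scores were corrected for input abundance and mapped to Kd with protein pairs of known affinity run in the same pool. There are three technical replicates.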

Each variant's VH is given in full. All variants listed here change G102 of the VH, counted from its first residue. Values are apparent Kd, the geometric mean of the replicates that gave a signal; lower means stronger binding. A pair that was not seen in any replicate is written "nd"; this usually means weak binding, but a binder can also be missed. In this assay the parent's reference entry averaged 72 nM; its copy inside this library read 7.5 nM.

* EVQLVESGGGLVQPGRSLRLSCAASGFPFDDYAMHWVRQAPGKGLEWVSGISWNSGSIGYARSVKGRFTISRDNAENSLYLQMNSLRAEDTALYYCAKVGRVGGYFDYWGQGTLVTVSS: 8.9 µM (2 of 3 replicates)
* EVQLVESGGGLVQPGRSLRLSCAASGFTFRDYAMHWVRQAPGKGLEWVSGISWNSGSIGYAYSVKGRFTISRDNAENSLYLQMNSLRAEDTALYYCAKVGRHGGYFDYWGQGTLVTVSS: 68 µM (2 of 3 replicates)
* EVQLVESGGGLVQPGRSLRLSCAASGFTFDDYAMHWVRQAPGKGLEWVSGISWNSGSIGYADSVKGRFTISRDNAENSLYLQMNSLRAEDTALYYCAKVGRIRGYFDYWGQGTLVTVSS: 170 µM (3 of 3 replicates)
* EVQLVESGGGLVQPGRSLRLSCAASGFTFDDYAMHWVRQAPGKGLEWVSGISWNSGSIGYADSVKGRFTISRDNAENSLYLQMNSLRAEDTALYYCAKVGRKGGNFDEWGQGTLVTVSS: nd (0 of 3 replicates)
* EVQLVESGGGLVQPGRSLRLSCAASGFTFIDYAMHWVRQAPGKGLEWVSGISWNSGSIGYADAVKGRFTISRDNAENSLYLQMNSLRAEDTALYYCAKVGRHGGYFDYWGQGTLVTVSS: 1.4 µM (3 of 3 replicates)
* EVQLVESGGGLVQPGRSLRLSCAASGFTFDDYAMHWVRQAPGKGLEWVSGPSWNSGSIGDADSVKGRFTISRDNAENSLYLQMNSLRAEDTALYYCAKVGRIGGYFDYWGQGTLVTVSS: nd (0 of 3 replicates)
* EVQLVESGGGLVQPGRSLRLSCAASGFTFDDYAAHWVRQAPGKGLEWVSGISWNSGSIGYADSEKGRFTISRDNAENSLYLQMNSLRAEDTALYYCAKVGRIGGYFDYWGQGTLVTVSS: nd (0 of 3 replicates)
* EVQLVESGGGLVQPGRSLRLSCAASGFTFDDYAMHWVRQAPGKGLEWVSVISWNSGSIGYADSVKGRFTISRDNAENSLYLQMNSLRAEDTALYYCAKVGCWGGYFDYWGQGTLVTVSS: nd (0 of 3 replicates)
* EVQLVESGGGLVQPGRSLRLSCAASGFTFDDYAMHWVRQAPGKGLEWVSGISWNSGSIWYLDSVKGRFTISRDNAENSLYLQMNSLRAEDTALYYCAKVGRWGGYFDYWGQGTLVTVSS: 850 µM (1 of 3 replicates)
* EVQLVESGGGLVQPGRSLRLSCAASGFTFDDYAMHWVRQAPGKGLEWVSGIAWNSGLIGYADSVKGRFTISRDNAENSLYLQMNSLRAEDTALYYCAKVGREGGYFDYWGQGTLVTVSS: nd (0 of 3 replicates)
* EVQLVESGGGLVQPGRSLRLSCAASGFTFDDYAMQWVRQAPGKGLEWVSGISWNSGSIGYADSVKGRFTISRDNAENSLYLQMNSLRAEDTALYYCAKVGRMGGYFLYWGQGTLVTVSS: nd (0 of 3 replicates)
* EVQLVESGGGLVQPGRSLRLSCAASGFTLDDYAMHWVRQAPGKGLEWVSGIHWNSGSIGYADSVKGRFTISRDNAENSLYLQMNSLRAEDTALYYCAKVGRLGGYFDYWGQGTLVTVSS: nd (0 of 3 replicates)
* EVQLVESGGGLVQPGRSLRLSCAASGFTFDDYAMHWVRQAPGKGLEWVSGISWNSPSIGYADSVKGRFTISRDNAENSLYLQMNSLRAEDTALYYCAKYGRDGGYFDYWGQGTLVTVSS: nd (0 of 3 replicates)
* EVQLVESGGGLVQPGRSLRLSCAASGFTFDDYAMHWVRQAPGKGLEWVSGISWNSGKIGYADSVKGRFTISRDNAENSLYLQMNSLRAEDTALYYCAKVGRRGGYFQYWGQGTLVTVSS: 880 µM (1 of 3 replicates)
* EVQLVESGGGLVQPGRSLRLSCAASGFTFADYAYHWVRQAPGKGLEWVSGISWNSGSIGYADSVKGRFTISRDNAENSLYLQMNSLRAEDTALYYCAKVGRFGGYFDYWGQGTLVTVSS: 370 µM (1 of 3 replicates)
* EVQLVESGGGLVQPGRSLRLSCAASGFTFDDYATHWVRQAPGKGLEWVSGISWNSGSIGYADSVKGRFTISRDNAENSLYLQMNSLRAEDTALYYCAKVGRCGGYFDYWGQGTLVTVSS: 740 µM (3 of 3 replicates)
* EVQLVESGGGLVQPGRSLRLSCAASGFTFDDYAMHWVRQAPGKGLEWVSGISWNSGSIPYADSVKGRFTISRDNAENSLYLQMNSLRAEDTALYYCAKVGRTGGYFDVWGQGTLVTVSS: 60 µM (1 of 3 replicates)
* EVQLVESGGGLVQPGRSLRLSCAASLFTFDDYAMHWVRQAPGKGLEWVSGISWNSGSIGYADSVKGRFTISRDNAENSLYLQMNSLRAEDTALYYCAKVGREGGYFDSWGQGTLVTVSS: 430 nM (3 of 3 replicates)
* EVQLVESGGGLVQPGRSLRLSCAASGFTFDDYAMHWVRQAPGKGLEWVSGISWNCGSIGYADSVKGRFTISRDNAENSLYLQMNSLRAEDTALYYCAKVGRRLGYFDYWGQGTLVTVSS: nd (0 of 3 replicates)
* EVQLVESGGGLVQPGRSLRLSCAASGFTFDDHAMHWVRQAPGKGLEWVSGISWNSGSIGYYDSVKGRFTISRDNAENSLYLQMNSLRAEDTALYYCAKVGRPGGYFDYWGQGTLVTVSS: 39 µM (1 of 3 replicates)

Extract of 3 entries:

{"VH": "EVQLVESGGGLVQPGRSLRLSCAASLFTFDDYAMHWVRQAPGKGLEWVSGISWNSGSIGYADSVKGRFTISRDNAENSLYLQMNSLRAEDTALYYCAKVGREGGYFDSWGQGTLVTVSS", "apparent Kd": "430 nM", "detected": "3/3"}
{"VH": "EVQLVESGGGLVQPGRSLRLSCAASGFTFIDYAMHWVRQAPGKGLEWVSGISWNSGSIGYADAVKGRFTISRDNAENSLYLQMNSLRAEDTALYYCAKVGRHGGYFDYWGQGTLVTVSS", "apparent Kd": "1.4 µM", "detected": "3/3"}
{"VH": "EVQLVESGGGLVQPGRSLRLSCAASGFTFDDYAAHWVRQAPGKGLEWVSGISWNSGSIGYADSEKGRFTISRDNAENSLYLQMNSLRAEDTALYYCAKVGRIGGYFDYWGQGTLVTVSS", "apparent Kd": "nd", "detected": "0/3"}

Empty control strains, which show no peptide, gave a signal in 21% of pairings with library AAYL51; the median was 34 µM and 95% of these signals were weaker than 1.8 µM. No background was subtracted.

From the AlphaSeq antibody data of Engelhart et al. 2022 (doi:10.1038/s41597-022-01779-4), copy in the FLAb collection.